# High-throughput results from PubChem BioAssay.
# ClpP mod – qHTS Assay for Activators of ClpP. Potency, µM (top dose mostly 57.5 µM). purified B. subtilis ClpP, FRET peptide cleavage, 20 min. ATP-dependent Clp protease proteolytic subunit (Bacillus subtilis (strain 168)), P80244. 340,000 compounds, 1.9% hits; active means well fitted falling curve with a large enough effect; inconclusive means small, poorly fitted or top-dose-only effect; inactive means no such curve, though single readings can be large or run the other way; further: the source files actives as falling curves though it sought activators and does not explain the sign; nearly all actives have a fitted effect of over 65% in size
#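 Purified B. subtilis ClpP, 10 microg/mL final in Tris/HCl pH8 with KCl, BSA, glycerol and Tween-20, cleaved an Abz/nitrotyrosine-quenched decapeptide. Fluorescence (ex 320, em 430) was read at 0 and 20 min at room temperature. Delta was normalized to 5.8 microM ADEP and DMSO/no-enzyme controls.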
# TCR act – activates T cell receptor signaling | primary human leukocytes, anti-CD3, IL-2 HTRF, 48 h | Potency, µM (top dose mostly 9.22 µM), hits mostly activators | 330,000 tested, under 10 active
#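 Primary human leukocytes incubated 48 hr with anti-CD3 beads plus compound, without co-stimulation. Secreted IL-2 measured by HTRF (europium cryptate/d2 anti-IL-2 pair, 320 nm excitation, 665 nm emission).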
# miR-21 reporter – miR-21 reporter, rising signal | AID 2288 | HeLa miR-21 FLuc reporter, luciferase, 48 h | 340,000 tested, under 10 active | Potency, µM (doses to about 38.3 µM); active = well fitted rising curve with a large enough effect; inconclusive = small, poorly fitted or top-dose-only effect; inactive = no such curve, though single readings can be large or run the other way;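 note: miR-21 action dims this reporter so a rising signal means less miR-21 action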
#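 HeLa cells stably expressing CMV-driven firefly luciferase with a downstream miR-21 binding sequence, endogenously expressing miR-21, were treated with titrations (up to about 40uM final) for 48 hours at 37 degree Celsius. Luciferase luminescence was read after lysis.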
# Nrf2 activator – Nrf2 pathway activation; AREc32 ARE-luciferase reporter (MCF7-derived line), luminescence, 24 h; Potency, µM (doses to about 46.1 µM), most hits filed as activators; 410,000 compounds, 0.31% hits; further: nearly all actives have a fitted effect of over 65% in size
#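 ARE-driven firefly luciferase activity in AREc32 cells measured after a 24 hr compound exposure at 37 deg C, using Steady-Glo reagent and a 30 min room-temperature hold.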
# Nrf2 inh – Nrf2 pathway inhibition. AID 504444. 360,000 compounds, 2.1% hits. Potency, µM (series often up to 46 µM), usual class: inhibitors. A549 ARE-Fluc reporter, luciferase luminescence, 18-24 h; further: nearly all actives have a fitted effect of over 60% in size
#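 Nrf2 function is reported as luminescence of an ARE-controlled luciferase in A549 cells. Compounds were tested at several concentrations, and a CellTiter-Fluor read on the same wells flagged cytotoxicity.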
# A549 tox – kills or reduces viability of A549 cells in Nrf2 counter-screen | A549 ARE-Fluc cells, CellTiter-Fluor viability, 18-24 h | Potency, µM (highest dose often 46 µM), usual class: inhibitors | 390,000 compounds, 0.16% hits | AID 504648
#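 A549 ARE_Fluc cells in 5% FBS OPTI-MEM were exposed to compounds in concentration-response for 18-24 h at 37 deg C. Viability was read by CellTiter-Fluor fluorescence (Ex 405/Em 525) after 30 min, before the luciferase read.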
# Hits are given with their value; – = inactive; ? = inconclusive; · = no result given. The list is not random: actives were taken first. Their share in the collection is about 3.7%. Unless noted, the call rests on the fitted dose curve; in most records, active means well fitted curve in the direction sought with a large enough effect; inconclusive means small, poorly fitted or top-dose-only effect, or another doubt; inactive means no such curve, though single readings can be large; an effect the other way counts as inactive or inconclusive.
SMILES,ClpP mod,TCR act,miR-21 reporter,Nrf2 activator,Nrf2 inh,A549 tox
COc1ccc(CNCCC(c2ccc(F)cc2)c2ccc(OC)cc2)cc1 (configuration not stated),28.2µM,–,?,–,–,–
O=C(Nc1ccccc1Cl)N1CCN(c2ccc3nnc(-c4ccc(F)cc4)n3n2)CC1,–,–,–,–,?,–
O=C(Nc1ccc(Cl)cc1)N1CCN(c2ccc3nnc(-c4ccccc4)n3n2)CC1,–,·,–,–,25.9µM,–
COc1ccccc1NC(=O)N1CCN(c2ccc3nnc(-c4ccc(F)cc4)n3n2)CC1,–,–,–,–,9.2µM,–
CCn1c(SCC(=O)Nc2nc3ccc(C)cc3s2)nc2c(c1=O)SC(C)C2 (configuration not stated),–,–,–,–,18.4µM,?
CCn1c(SCC(=O)Nc2nc3ccccc3s2)nc2c(c1=O)SC(C)C2 (configuration not stated),–,–,–,–,·,?
Cc1onc(-c2ccccc2)c1C(N)=O,–,–,–,–,–,–
Cc1onc(-c2ccccc2)c1C(=O)n1nnc2ccccc21,28.2µM,–,–,–,–,–
CSc1cccc(NC(=O)COC(=O)C2CCN(S(=O)(=O)c3ccccc3)CC2)c1,–,–,·,–,–,–
Cc1nc(C)c(C(=O)NCCC(c2ccccc2)c2ccccc2)o1,·,–,–,–,10.3µM,–
CCCCN(C(=O)C1CC(=O)N(Cc2ccc(C)cc2)C1)c1c(N)n(CCCC)c(=O)[nH]c1=O (configuration not stated),22.4µM,–,·,–,–,–
COc1cc(OC)cc(C(=O)OC(C)C(=O)NC2CCCc3ccccc32)c1 (configuration not stated),–,–,·,–,–,–
O=C(NCCc1cn2ccccc2n1)c1cc(COc2ccc3ncccc3c2)on1,·,–,?,–,16.4µM,?
CC(NC(=O)c1cc(COc2ccc3ncccc3c2)on1)c1ccc(F)cc1 (configuration not stated),–,–,–,–,?,–
COc1ccc(CCNc2ncnc3[nH]ncc23)cc1OC,?,–,–,–,?,–
CCOc1cc(C)nc(NCCc2ccc(OC)c(OC)c2)n1,–,–,–,–,25.9µM,–
COc1ccc(CCNc2nc(C)cc(=O)[nH]2)cc1OC,–,·,·,–,–,–
COc1ccc(CCNc2ncnc3sc(C)cc23)cc1OC,·,–,?,–,23.1µM,–
c1csc(-c2nc(NCCCN3CCOCC3)c3ccccc3n2)c1,35.5µM,–,–,–,–,–
Fc1ccccc1-c1nc(NCCCN2CCOCC2)c2ccccc2n1,–,–,–,–,?,–
Fc1c(F)c(F)c(N/N=C/c2c[nH]c3ccccc23)c(F)c1F,–,–,–,12.6µM,–,–
CCc1ccc2c(F)cccc2n1,–,·,·,–,·,·
O=C(Oc1ccc(=O)n(-c2ccccc2)n1)c1ccc(Cl)cc1,–,–,–,–,–,–
COc1ccc(C(=O)Oc2ccc(=O)n(-c3ccccc3)n2)cc1,–,–,–,–,1.64µM,·
COc1ccc(OC)c(NC(=O)Cn2c(=O)cc(-c3ccccc3)c3c(C)nn(C)c32)c1,–,·,–,–,?,–
SMILES,ClpP mod,TCR act,miR-21 reporter,Nrf2 activator,Nrf2 inh,A549 tox
COc1cc(/C=C/C(=O)OCC(=O)N2CCc3ccccc32)cc(OC)c1OC,–,·,·,–,·,·
COc1cc(/C=C/C(=O)OCC(=O)NC(=O)NC(C)C)cc(S(=O)(=O)N2CCc3ccccc32)c1OC,20µM,–,–,–,?,–
Cc1cccc2[nH]c3c(N4CC=C(c5ccc(F)cc5)CC4)ncnc3c12,–,–,–,–,20.6µM,–
COc1cccc2[nH]c3c(Cl)ncnc3c12,15.8µM,–,–,–,–,–
COc1cccc2[nH]c3c(N4CCCCC4)ncnc3c12,28.2µM,–,–,–,?,–
CCOC(=O)C1CCN(c2ncnc3c2[nH]c2cccc(OC)c23)CC1,–,–,–,–,–,–
OC[C@@H]1CN(Cc2cccc(C(F)(F)F)c2)C[C@H](n2cnc3c(NCc4ccncc4)ncnc32)O1,–,·,·,–,·,·
O=C1c2ccc(-c3ccc(F)cc3OCc3ccccc3)cc2S(=O)(=O)c2cccc(C(=O)N3CCCC3)c21,–,–,·,–,?,–
COc1cc(/C=N/NC(=O)c2cccc(C)c2)ccc1OCC(=O)Nc1ccccc1,–,–,·,–,?,–
COc1ccc(-c2noc(CN(C(=O)c3ccc(C)cc3C)C(C)C)n2)cc1,–,·,–,–,–,–
CCOc1ccccc1NC(=O)C1COc2ccccc2O1 (configuration not stated),–,·,–,6.31µM,–,–
CCOc1ccc(OCC)c(NC(=O)C2COc3ccccc3O2)c1 (configuration not stated),–,–,–,–,?,–
COc1ccc(Cl)cc1NC(=O)C1COc2ccccc2O1 (configuration not stated),–,–,–,3.55µM,–,–
O=C(c1ccc2c(=O)n3c(nc2c1)CCCCC3)N1CCN(c2ccccc2)CC1,·,–,–,–,–,–
O=C(c1ccc2c(=O)n3c(nc2c1)CCCCC3)N1CCCCC1,–,–,–,–,–,–
O=C(c1ccc2c(=O)n3c(nc2c1)CCCCC3)N1CCN(c2ccc([N+](=O)[O-])cc2)CC1,–,–,–,–,23.1µM,?
O=C(c1ccc2c(=O)n3c(nc2c1)CCCCC3)N1CCN(C(c2ccccc2)c2ccccc2)CC1,–,–,–,–,20.6µM,–
CC1(C(=O)N2Cc3ccccc3C2)CCN1C(=O)C1(c2ccc(Cl)cc2)CC1 (configuration not stated),–,·,·,–,·,·
CC(=O)Nc1ccc2c(c1)C(=O)N(C1CCCCC1)C2=O,25.1µM,–,–,–,·,–
COc1cc(C(=O)Oc2cccc(Nc3ncnc4ccccc34)c2)cc(OC)c1OC,–,–,–,–,14.6µM,–
CCOC(=O)[C@]12CCCC=C1N(Cc1cccc3ccccc13)C(=O)[C@H](CC(=O)NCC1CCCCC1)C2,–,·,·,–,·,·
Cc1noc(C)c1C(=O)Nc1nc2ccc(Cl)cc2s1,–,–,–,–,–,–
O=C1c2ccc(Br)cc2C(=O)N1c1ccc(Cc2ccncc2)cc1,·,–,–,–,20.6µM,–
O=C(CNC(=O)c1cccc(F)c1)N/N=C/c1cccs1,–,–,–,–,?,–
CCOc1ccc(CCNC(=O)c2nnc(Cc3cc(OC)c(OC)c(OC)c3)o2)cc1OCC,–,·,–,–,–,–
COc1ccc2cc3cc(C(=O)Nc4ccccc4N4CCN(C)CC4)oc3nc2c1,–,–,–,–,–,–
